# Laboratory results taken from PubChem BioAssay AID190 (DTP/NCI, 2004).
# Toxic doses and inconclusive results are not listed.
# Test system: AKR/Lw mice, AKR lymphoma ip, median survival T/C
# Assay: NCI In Vivo Anticancer Drug Screen. Data for tumor model Lymphoma AKR (Transplanted) (intraperitoneal) in AKR/Lw mice
# Conditions: endpoint: median survival time; dose: 3.1 mg/kg/injection; schedule: Q01DX015 (ip); vehicle: saline; higher = longer survival
# Protocol: The antitumor activity of compounds was measured in mice bearing transplantable tumors. Survival or tumor size were measured and the results are expressed as the measurement made in the treated group (T) divided by the measurement made in the vehicle treated control group (C). The tumor model used in this assay is Lymphoma AKR (Transplanted) (intraperitoneal) in AKR/Lw mice
smiles,measurement,value
CC(/C=N/N=C(N)N)=N\N=C(N)N,T/C,112 % of control
